Results from article PMC10602570, “A Bioresponsive Genetically Encoded Antimicrobial Crystal for the Oral Treatment of Helicobacter Pylori Infection” (2023).

Biological target: Cry3Aa‐MIIA(D45E) N‐terminal fragment crystals (Cry3Aa‐MIIANt*) (Bacillus thuringiensis | Vibrio coralliilyticus (printed: Vibrio coralliilyticu))
Experiment: co-sedimentation

“cleaved MIIA(D45E) C‐terminal‐GFP fragment (MIIACt‐GFP) (domain or fragment)” gave a percent released after 48 h of 20%.
